Laboratory results published in ChEMBL document CHEMBL1133090, “3D-QSAR CoMFA on cyclin-dependent kinase inhibitors” (J Med Chem, 2000).

Protein sequences, listed by entry. Tags and fused reporters are not part of them.
UniProt P06493, whole entry: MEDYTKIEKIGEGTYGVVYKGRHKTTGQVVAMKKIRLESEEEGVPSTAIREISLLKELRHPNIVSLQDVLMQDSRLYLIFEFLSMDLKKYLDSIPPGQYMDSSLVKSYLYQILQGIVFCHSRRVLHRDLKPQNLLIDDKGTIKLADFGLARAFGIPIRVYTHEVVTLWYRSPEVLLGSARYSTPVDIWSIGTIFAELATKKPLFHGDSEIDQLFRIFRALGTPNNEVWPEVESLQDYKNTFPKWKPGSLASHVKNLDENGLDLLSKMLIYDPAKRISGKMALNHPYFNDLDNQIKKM

Biological target: Cyclin-dependent kinase 1 (Homo sapiens, UniProt P06493)

| SMILES | IC50 [nM] |
| --- | --- |
| CC(C)n1cnc2c(NC(CO)c3ccccc3)nc(N3CCC[C@@H]3CO)nc21 (stereo not given in full) | 10000 |
| CC(C)n1cnc2c(NC(CO)c3ccccc3)nc(N3CCC[C@H]3CO)nc21 (stereo not given in full) | 800 |
| CC(C)n1cnc2c(NCc3cc(C(F)(F)F)cc(C(F)(F)F)c3)nc(N3CCC[C@@H]3CO)nc21 | 1000 |
| CC(C)n1cnc2c(NCc3ccc(C(F)(F)F)cc3)nc(N3CCC[C@@H]3CO)nc21 | 800 |
| COc1ccccc1CNc1nc(N2CCC[C@@H]2CO)nc2c1ncn2C(C)C | 1800 |
| COc1cc(CNc2nc(N3CCC[C@@H]3CO)nc3c2ncn3C(C)C)cc(OC)c1 | 300 |
| CC(C)n1cnc2c(NCc3ccc4c(c3)OCO4)nc(N3CCC[C@@H]3CO)nc21 | 350 |
| COc1ccc(CNc2nc(N3CCC[C@@H]3CO)nc3c2ncn3C(C)C)cc1 | 210 |
| COc1cccc(CNc2nc(N3CCC[C@@H]3CO)nc3c2ncn3C(C)C)c1 | 300 |
| CC(C)n1cnc2c(NCc3cccc(C(F)(F)F)c3)nc(N3CCCC3CO)nc21 (single isomer, unassigned) | 700 |
